Values quoted from earlier work in patent US5593975A, “Adenosine derivatives having A2 agonist activity” (Schering Corporation, priority 1992, dated 1997).

Legend:
Settings in all cases: background, literature
A2 receptor = tested on: A2 receptor
adenosine receptors = tested on: adenosine receptors
A1 receptor = tested on: A1 receptor

For CCNC(=O)[C@H]1O[C@@H](n2cnc3c(N)ncnc32)[C@H](O)[C@@H]1O [NECA, adenosine-5'-N-ethyluronamide], the “activity on the A2 receptor” value (A2 receptor) is given as “having activity on the A2 receptor”, the “selectivity for the adenosine receptors” value (adenosine receptors) is given as “lacks selectivity for the adenosine receptors” and the “activity on the A1 receptor” value (A1 receptor) is given as “also active on the A1 receptor”.
